The target in one assay is [R23S,F25E]HBP (human) (UniProt P20160). Briefly: scintillation proximity assay, unlabeled BPTI competing with 125I-BPTI for [R23S,F25E]HBP.
The target in assay [1] is native human heparin-binding protein (human) (UniProt P20160). The assay is described as follows: scintillation proximity assay, unlabeled BPTI competing with 125I-BPTI for HBP.

Turning to “bovine pancreatic trypsin inhibitor (from UniProt P00974 36-93)”, the IC50 in assay [R23S,F25E]HBP (human) and in assay [1] was 7 nM throughout.

Values taken from patent EP1674110A1, “Inhibition of bradykinin release” (priority 1999, dated 2000).
